Measurements reported in US20250115636A1, “PEPTIDOMIMETIC INHIBITORS OF PROTEIN N-TERMINAL […] 1, COMPOSITION, AND METHOD OF USE” (Purdue Research Foundation, priority 2022, published 2025).

Chains of the proteins cited; added tags and fusions are not shown.
UniProt Q9BV86, whole entry: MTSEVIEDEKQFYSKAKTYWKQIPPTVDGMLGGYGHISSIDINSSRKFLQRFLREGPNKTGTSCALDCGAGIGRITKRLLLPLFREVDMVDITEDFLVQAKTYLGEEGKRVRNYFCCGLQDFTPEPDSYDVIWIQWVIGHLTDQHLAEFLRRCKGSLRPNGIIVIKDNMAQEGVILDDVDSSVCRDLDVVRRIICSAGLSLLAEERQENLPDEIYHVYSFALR

What was measured:
NTMT1 [1] = target: T1, NTMT1 (Homo sapiens, UniProt Q9BV86); conditions: previously reported inhibitors; cited from earlier work
me3-RCC1 = conditions: at 1 mM in HCT116 cells, previously reported; cited from earlier work
NTMT1 [2] = target: T1, NTMT1; assay: NTMT1 biochemical assay (SAHH-coupled fluorescence assay); conditions: ratio of NTMT1 IC50 to that of DC541
[3] = Parallel Artificial Membrane Permeability Assay (PAMPA)

SMILES | IC50 (NTMT1 [1]) [nM] | Decrease of the cellular me3-RCC1 level (me3-RCC1) [%] | IC50/IC50 (DC541) (NTMT1 [2]) | Improvement in cell permeability compared to 1d [3]
N=C(N)NCCC[C@H](NC(=O)[C@H](CCCCN)NC(=O)[C@@H]1CCCN1C(=O)Cc1cccc2ccccc12)C(N)=O | 100 | 50 |  | 
CN(CCc1ccccc1)C(=O)[C@H](CCCCN)NC(=O)[C@@H]1CCCN1C(=O)Cc1cccc2ccccc12 |  |  | 5.0 | about 2 fold
